Test results: patent publication US12139488B2, “Pyrido[3,2-d]pyrimidine compounds uses thereof for treating a proliferative disease” (Universite de Montreal, priority 2021, dated 2024)

Columns and labels:
[1] = tested on: pERK in NCIH1755 cells (BRAF G469A); test: Phospho-ERK inhibition (AlphaLISA), NCIH1755; details: for NCIH1755 pERK % Ymin: NCIH1755, value in parentheses; for IC50: read-out: NCIH1755 pERK IC50, NCIH1755
Description: (§1) All cancer cell lines (A375, A101D, A2058, RKO, HT29 SK-MEL 30, IPC298, HepG2, HCT-116, Lovo, SWV620, SW480, NCI-H358, NCI-H2122, Calu-6, NCIH2087, NCIH1755, NCIH1666 and Mewo) were obtained from ATCC and cultured in RPMI-1640 medium (Gibco) supplemented with 5% heat inactivated fetal bovine serum (FBS, Wisent) at 37° C. under 5% CO2. Cells were maintained in T175 flasks (Greiner). They were passaged by removing the culture medium, washing once in 10 mL of room temperature Phosphate Buffered Saline (PBS; Wisent) and incubating at 37° C. with 2 mL of 0.05% Trypsin (Thermo-Fisher). Trypsin was then inactivated by adding complete growth medium and the cells were then replated in a T175 culture dish at the appropriate dilution. All cell lines were routinely tested for mycoplasma contamination. Tissue type and mutational status of each cell line can be found in Table B.
(§2) AlphaLISA® SureFire® Ultra™ p-ERK 1/2 (Thr202/Tyr204) analysis was conducted on cells plated in 100 μL of complete RPMI-1640 growth medium in 96-well flat-bottomed transparent dishes (Costar) at a density indicated in Table C. Cells were maintained overnight at 37° C. under 5% CO2 before treatment with compounds' dilution series for one hour. The cell density in cells/cm^2 corresponds to cell number divided by the area of one well of a 96-well plate ([…]).
(§3) In a dilution series 100 μL/well of test substance dilution prepared in complete RPMI-1640 growth media was added to the cells. The dilution series is selected so that ten concentrations cover a range from 10 μM to 0.33 nM. If necessary the initial concentration of 10 μM is increased to 100 μM or lowered to 1 μM (as in the case of A375 and H1666 cells, which are generally more sensitive to the compounds) and further dilution is carried out accordingly. The final concentration of DMSO in the assay is set at 0.5%.
(§4) After treatment, media was removed and cells were lysed in 50 μL of 1× AlphaScreen Ultra Lysis Buffer (Perkin Elmer). The AlphaLISA® SureFire® Ultra™ p-ERK 1/2 (Thr202/Tyr2O4) (PerkinElmer) reactions were performed with 5 μL of cell lysate according to the manufacturer's specifications in 384-well proxyplates (Perkin Elmer) followed by overnight incubation of the reactions at room temperature in a humidified chamber. After completion of the reactions, the signals were recorded on an EnVision plate reader (Perkin Elmer) using built in AlphaLISA® settings.
(§5) The effect of each compound dilution on the pERK signal was expressed in % inhibition and calculated as follows. An internal 100% inhibition control (1 M trametinib, cat #HY-10999; MedChem Express; CAS #871700-17-3) was included in each plate and used as a measure of pERK background. First, the value obtained for trametinib was subtracted from each data point. The average of DMSO (vehicle) controls (set as 0% inhibition) was established and used to calculate % inhibition: % inhibition=100*(1-((pERK signalcompound)/(pERK signalDMSO)))
(§6) The ability of each compound to inhibit pERK signal was expressed as an IC50 value obtained by plotting the inhibition values for each data point of a dilution series and fitting the obtained curves using a log(agonist) versus response-variable slope (four parameters) function using GraphPadPrism (V7.0) or Dotmatics Screening Ultra platform.
(§7) When present, paradoxical pERK induction is inferred from the negative % inhibition values observed in the pERK IC50 curves of a compound.

A2058 cells (BRAF V600E) = test: Proliferation inhibition (CellTiter-Glo), A2058; details: read-out: A2058 Prolif. EC50; A2058, 3 days
Description: as §1
(§8) CellTiter-Glo® viability analysis was conducted on cells plated in 100 μL of complete RPMI-1640 growth medium in 96-well flat-bottomed white opaque plates (Greiner or Croning) at a density indicated in Table E (for each CCL, number of cells plated per well of a 96-well plate to perform the CellTiter-Glo® cell viability assay). The cell density in cells/cm^2 would correspond to cell number divided by the area of one well of a 96-well plate (0.32 cm^2). Cells were maintained overnight at 37° C. under 5% CO2 before treatment with compounds' dilution series for 3 days.
(§9) In a dilution series 100 μL/well of test substance dilution prepared in complete RPMI-1640 growth media was added to the cells plated initially in 100 μL of growth media. The dilution series is selected so that ten concentrations cover a range from 10 μM to 0.33 nM. If necessary (as in the case of A375 cells, which were more sensitive to the compounds) the initial concentration of 10 μM is lowered to 1 μM and further dilution is carried out accordingly. The final concentration of DMSO in the assay is set at is 0.5%.
(§10) After 3 days of incubation, the growth media were removed by aspiration and 60 μL of diluted CellTiter-Glo® reagent (10 μL CellTiter-Glo® reagent+50 μL of PBS) was added to each well. Cells were allowed to lyse and to equilibrate in CellTiter-Glo® reagent by 5 min incubation on a plate shaker followed by 10 min incubation at room temperature. Luminescence signals were then acquired on a Synergy Neo2 plate reader (Biotek).
as §5, with “proliferation of cancer cell lines” for “pERK signal”, “μM of trametinib;” for “M trametinib,”, “CellTiter-Glo® signal” for “pERK”, “The” for “First, the”, “inhibition=100*(1−((CellTiter-Glo® signalcompound)/(CellTiter-Glo®” for “inhibition=100*(1-((pERK signalcompound)/(pERK”
as §6, with “proliferation” for “pERK signal”, “a EC50” for “an IC50”, “effect” for “inhibition”

[2] = tested on: pERK in Mewo cells (NF1 LOF); test: Phospho-ERK inhibition (AlphaLISA), Mewo; details: for IC50: read-out: Mewo pERK IC50; for Mewo pERK % Ymin: value in parentheses
Description: as §1, §2, §3, §4, §5, §6, §7

[3] = tested on: NCIH2087 cells (BRAF L597V; KRAS Q61K); test: Proliferation inhibition (CellTiter-Glo), NCIH2087; details: read-out: NCIH2087 Prolif. EC50; NCIH2087, 3 days
Description: as §1, §8, §9, §10
as §5, with “proliferation of cancer cell lines” for “pERK signal”, “μM of trametinib;” for “M trametinib,”, “CellTiter-Glo® signal” for “pERK”, “The” for “First, the”, “inhibition=100*(1−((CellTiter-Glo® signalcompound)/(CellTiter-Glo®” for “inhibition=100*(1-((pERK signalcompound)/(pERK”
as §6, with “proliferation” for “pERK signal”, “a EC50” for “an IC50”, “effect” for “inhibition”

[4] = tested on: NCI-H358 cells (KRAS-G12C); test: Proliferation inhibition (CellTiter-Glo), NCI-H358; details: read-out: NCI-H358 Prolif. EC50; NCI-H358, 3 days
Description: as §1, §8, §9, §10
as §5, with “proliferation of cancer cell lines” for “pERK signal”, “μM of trametinib;” for “M trametinib,”, “CellTiter-Glo® signal” for “pERK”, “The” for “First, the”, “inhibition=100*(1−((CellTiter-Glo® signalcompound)/(CellTiter-Glo®” for “inhibition=100*(1-((pERK signalcompound)/(pERK”
as §6, with “proliferation” for “pERK signal”, “a EC50” for “an IC50”, “effect” for “inhibition”

[5] = tested on: NCI-H2122 cells (KRAS-G12C); test: Proliferation inhibition (CellTiter-Glo), NCI-H2122; details: read-out: NCI-H2122 Prolif. EC50; NCI-H2122, 3 days
Description: as §1, §8, §9, §10
as §5, with “proliferation of cancer cell lines” for “pERK signal”, “μM of trametinib;” for “M trametinib,”, “CellTiter-Glo® signal” for “pERK”, “The” for “First, the”, “inhibition=100*(1−((CellTiter-Glo® signalcompound)/(CellTiter-Glo®” for “inhibition=100*(1-((pERK signalcompound)/(pERK”
as §6, with “proliferation” for “pERK signal”, “a EC50” for “an IC50”, “effect” for “inhibition”

Compound | NCIH1755 pERK % Ymin [1] [%] | IC50 [1] [µM] | EC50 (A2058 cells (BRAF V600E)) [µM] | IC50 [2] [µM] | Mewo pERK % Ymin [2] [%] | EC50 [3] [µM] | EC50 [4] [µM] | EC50 [5] [µM]
O=S(=O)(CCCN1CCOCC1)c1cn(-c2ccc3ncnc(Nc4c(F)ccc(NS(=O)(=O)c5cccc(Cl)c5Cl)c4F)c3n2)c2ccccc12 | 2 | < 0.03 | < 0.03 | 0.03 to 0.3 | −13 | 0.3 to 3 | < 0.03 | 0.3 to 3
Cc1c(Cl)cccc1S(=O)(=O)Nc1ccc(F)c(Nc2ncnc3ccc(-n4cc(C(=O)N5CCN(C)CC5)c5ccccc54)nc23)c1F | 25 | < 0.03 | < 0.03 | 0.03 to 0.3 | −6 | 0.3 to 3 | 0.3 to 3 | 0.3 to 3
CS(=O)(=O)C1CCN(c2cccc3c2nnn3-c2ccc3ncnc(Nc4c(F)ccc(NS(=O)(=O)c5cccc(Cl)c5Cl)c4F)c3n2)CC1 | 7 | < 0.03 | < 0.03 | 0.03 to 0.3 | 15 | 0.3 to 3 | < 0.03 | 0.3 to 3
Cc1c(F)cccc1S(=O)(=O)Nc1ccc(F)c(Nc2ncnc3ccc(-n4cnc5c(-c6cccnc6)cccc54)nc23)c1F | −2 | < 0.03 | < 0.03 | 0.03 to 0.3 | 3 | 0.3 to 3 | < 0.03 | > 3
Cc1c(Cl)csc1S(=O)(=O)Nc1ccc(F)c(Nc2ncnc3ccc(-n4cc(S(=O)(=O)N(C)CCN(C)C)c5ccccc54)nc23)c1F | 4 | < 0.03 | < 0.03 | 0.03 to 0.3 | −8 | < 0.03 | < 0.03 | 0.3 to 3
O=S(=O)(Nc1ccc(F)c(Nc2ncnc3ccc(-n4cnc5c(N6CCC7(CCCC7)CC6)cccc54)nc23)c1F)c1cccc(Cl)c1Cl | 5 | < 0.03 | < 0.03 | 0.03 to 0.3 | 3 | < 0.03 | < 0.03 | 0.3 to 3
COCCOc1cccc2c1nnn2-c1ccc2ncnc(Nc3c(F)ccc(NS(=O)(=O)c4cccc(Cl)c4Cl)c3F)c2n1 | −7 | < 0.03 | < 0.03 | 0.03 to 0.3 | −11 | – | < 0.03 | 0.3 to 3
CN(CCN1CCOCC1)S(=O)(=O)c1cn(-c2ccc3ncnc(Nc4c(F)ccc(NS(=O)(=O)c5cccc(Cl)c5Cl)c4F)c3n2)c2ccccc12 | 0 | < 0.03 | < 0.03 | 0.03 to 0.3 | 8 | 0.3 to 3 | < 0.03 | 0.3 to 3
CCC1(O)CCN(c2cccc3c2ncn3-c2ccc3ncnc(Nc4c(F)ccc(NS(=O)(=O)c5cccc(Cl)c5Cl)c4F)c3n2)CC1 | 1 | < 0.03 | < 0.03 | 0.03 to 0.3 | −12 | < 0.03 | < 0.03 | 0.3 to 3
O=S(=O)(Nc1ccc(F)c(Nc2ncnc3ccc(-n4cnc5c(N6CCC(O)(C(F)(F)F)CC6)cccc54)nc23)c1F)c1cccc(Cl)c1Cl | −7 | < 0.03 | < 0.03 | 0.03 to 0.3 | −4 | < 0.03 | < 0.03 | 0.3 to 3
Cc1c(F)cccc1S(=O)(=O)Nc1ccc(F)c(Nc2ncnc3ccc(-n4nc(C(=O)N(C)Cc5cccnc5)c5ccccc54)nc23)c1F | – | – | < 0.03 | – | – | < 0.03 | < 0.03 | 0.3 to 3
COc1ccc(S(=O)(=O)Nc2ccc(F)c(Nc3ncnc4ccc(-n5cc(S(=O)(=O)N(C)CCN(C)C)c6ccccc65)nc34)c2F)c(C)c1F | 2 | < 0.03 | < 0.03 | 0.03 to 0.3 | −14 | 0.3 to 3 | < 0.03 | 0.3 to 3
Cc1c(Cl)cccc1S(=O)(=O)Nc1ccc(F)c(Nc2ncnc3ccc(-n4cnc5c(N)cccc54)nc23)c1F | 30 | < 0.03 | < 0.03 | 0.03 to 0.3 | −1 | 0.3 to 3 | 0.3 to 3 | 0.3 to 3
O=S(=O)(Nc1ccc(F)c(Nc2ncnc3ccc(-n4nnc5ccccc54)nc23)c1F)c1cccc(Cl)c1Cl | −3 | < 0.03 | < 0.03 | 0.03 to 0.3 | −17 | – | < 0.03 | 0.3 to 3
